Literature values, collected in patent US20040197321A1, “Composition and method to prevent or reduce diarrhea and steatorrhea in HIV patients” (priority 2002, published 2004).

Details: excipients, Table V; cited from earlier work

## D-α-tocopheryl polyethylene glycol 1000 succinate [TPGS]
  Aqueous Solubility: 200 mg/mL
